Assay: Solubility of guanidine compounds in water, OECD Guideline 105 flask method

Substance: Guanidine carbonate
- Solubility in water: 330 mM

Reference: US20140017893A1, “CMP POLISHING LIQUID AND METHOD FOR POLISHING SUBSTRATE USING THE SAME” (Hitachi Chemical Company, Ltd., priority 2007, published 2014)
